This is a selection; strong and weak results do not stand in their true shares. The source made the active and inactive calls.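 How the source made its calls: active means viability at or under a set limit in both replicates, limit being median viability minus 3 SD (cut at about 48% in these data, passing the limit was not always enough); inconclusive means at or under the limit in just one replicate; inactive means at or above the limit in both replicates.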
Assay: growth inhibitors of H69AR lung tumor, primary screen, human, duplicate replicates (AID 580);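 further: 100% = mean luminescence of untreated wells and 0% = no signal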
Details: H69AR lung tumor cells viability, ATP luminescence, 72 h; at 10 µM; active compounds read low

Structure (SMILES)	viability
CP(=O)(Nc1ccccn1)Oc1ccccc1 (stereo not given)	inactive: 100%
CP(=O)(Nc1ccc2c(c1)OCCO2)Oc1ccccc1 (stereo not given)	inactive: 87.5%
CN(C)CCOC(=O)C(O)(c1ccccc1)C1CCCCC1 (stereo not given)	inactive: 93.2%
Cc1ccc(C)c(NP(C)(=O)Oc2ccccc2)c1 (stereo not given)	inactive: 91.4%
CP(=S)(Nn1cnnc1)Oc1ccccc1 (stereo not given)	inactive: 83.6%

Source: PubChem BioAssay AID580 (SRMLSC, 2007)
